The values below come from patent US5084441A, “Acetylated low density lipoproteins: a delivery system to phagocytic cells for stimulating immunologic response and host resistance” (priority 1988, dated 1992).

The test system of the series is P815 mastocytoma target cells. In words: Macrophage-mediated cytotoxicity ([3H]thymidine release) after treating thioglycolate-elicited macrophages. As for the experimental part: Macrophage-mediated cytotoxicity: Cytotoxicity was determined using a [3H] thymidine release assay. Thioglycolate-elicited macrophages were plated in 96-well flat-bottom tissue culture plates (Costar, Cambridge, Mass.) at 4×10^5 and 1×10^4 macrophage per well. […] After 24 hours, the plates were washed three times and [3H] thymidine labelled P815 tumor target cells (1×10^4) were added to each well. The total assay volume was 250 μl in DMEM with 10% FCS and the plates were incubated an additional 24 hours. After incubation, the microplates were centrifuged for 2 minutes at 250×g and a 125 μl aliquot of supernatant was removed and counted by liquid […]. Total incorporation of radioactivity was determined by adding 1×10^4 cells to 2 ml of Beckman Redissolve scintillation cocktail.
The percent specific release was calculated. [formula]
All samples were plated in triplicate and the data presented as the mean ±S.D. of triplicates.

lipopolysaccharide: the “effect of addition on the cytotoxicity activity” value (10 ng lipopolysaccharide added, data not shown) is listed as “no effect”.
Take “muramyl tripeptide phosphatidylethanolamine [MTP-PE]”: the “Percent Cytotoxicity” value reads like this: (effector to target cell ratio 1:1, same amounts per well) 3 ± 4%; (effector to target cell ratio 5:1, same amounts per well) 6 ± 4%; (effector to target cell ratio 10:1, same amounts per well) 8.6 ± 4%; (effector to target cell ratio 20:1, same amounts per well) 4.3 ± 1.2%; (effector to target cell ratio 40:1, per well: complex 18.0 ug protein containing 3.6 ug MTP-PE, free MTP-PE 3.6 ug, acetyl-LDL 18.0 ug protein) 7.5 ± 7%.
